{"sequences": {"note": "Protein sequences, listed by entry. Tags and fused reporters are not part of them. Lines headed by an entry give the natural chain unless they say otherwise; changes in a name come on top.", "UniProt P43490": "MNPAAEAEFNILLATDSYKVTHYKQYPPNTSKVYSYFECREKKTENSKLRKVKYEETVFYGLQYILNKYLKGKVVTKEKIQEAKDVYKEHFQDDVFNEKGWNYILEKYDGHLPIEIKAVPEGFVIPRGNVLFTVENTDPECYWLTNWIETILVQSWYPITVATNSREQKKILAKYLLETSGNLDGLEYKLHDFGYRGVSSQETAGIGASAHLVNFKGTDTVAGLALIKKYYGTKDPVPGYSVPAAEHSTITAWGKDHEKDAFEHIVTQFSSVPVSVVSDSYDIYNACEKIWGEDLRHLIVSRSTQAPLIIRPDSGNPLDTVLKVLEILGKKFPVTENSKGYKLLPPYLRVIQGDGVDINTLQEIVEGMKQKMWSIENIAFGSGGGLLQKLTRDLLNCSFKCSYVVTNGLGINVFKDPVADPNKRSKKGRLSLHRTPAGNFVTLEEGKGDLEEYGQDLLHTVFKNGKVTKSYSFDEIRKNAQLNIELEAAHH"}, "source": "patent US9302989B2", "about": "(priority 2010, dated 2016)"}
{"target": "NAMPT (Homo sapiens (Human), UniProt P43490)", "conditions": "read-out: TR-FRET Binding IC50 (μM) probe 1", "units": {"IC50": "µM"}}
{"compound": "O=C(NCc1cccc2c1OCCO2)c1ccc(NC(=O)N2Cc3ccccc3C2)cc1", "note": "[Example 16, N-{4-[(2,3-dihydro-1,4-benzodioxin-5-ylmethyl)carbamoyl]phenyl}-1,3-dihydro-2H-isoindole-2-carboxamide]", "IC50": 0.0101}
{"compound": "O=C(Nc1cnn(-c2ccccc2)c1)c1ccc(NC(=O)N2Cc3ccccc3C2)cc1", "note": "[Example 236, N-{4-[(1-phenyl-1H-pyrazol-4-yl)carbamoyl]phenyl}-1,3-dihydro-2H-isoindole-2-carboxamide]", "IC50": 0.457}
{"compound": "COc1ccc(CCNC(=O)c2ccc(NC(=O)N3Cc4ccccc4C3)cc2)cc1", "note": "[Example 127, N-(4-{[2-(4-methoxyphenyl)ethyl]carbamoyl}phenyl)-1,3-dihydro-2H-isoindole-2-carboxamide]", "IC50": 0.0539}
{"compound": "COc1cc(CCNC(=O)c2ccc(NC(=O)N3Cc4ccccc4C3)cc2)cc(OC)c1", "note": "[Example 168, N-(4-{[2-(3,5-dimethoxyphenyl)ethyl]carbamoyl}phenyl)-1,3-dihydro-2H-isoindole-2-carboxamide]", "IC50": 0.105}
{"compound": "N#Cc1cccc(NC(=O)c2ccc(NC(=O)N3Cc4ccccc4C3)cc2)c1", "note": "[Example 116, N-{4-[(3-cyanophenyl)carbamoyl]phenyl}-1,3-dihydro-2H-isoindole-2-carboxamide]", "IC50": 0.0465}
{"compound": "COc1cccc(N2CCN(C(=O)c3ccc(NC(=O)N4Cc5ccccc5C4)cc3)CC2)c1", "note": "[Example 55, N-(4-{[4-(3-methoxyphenyl)piperazin-1-yl]carbonyl}phenyl)-1,3-dihydro-2H-isoindole-2-carboxamide]", "IC50": 0.0202}
{"compound": "NCCCCCCNC(=O)c1ccc(NC(=O)N2Cc3ccccc3C2)cc1", "note": "[Example 66, N-{4-[(6-aminohexyl)carbamoyl]phenyl}-1,3-dihydro-2H-isoindole-2-carboxamide]", "IC50": 0.024}
{"compound": "Cc1cccc(O)c1NC(=O)c1ccc(NC(=O)N2Cc3ccccc3C2)cc1", "note": "[Example 203, N-{4-[(2-hydroxy-6-methylphenyl)carbamoyl]phenyl}-1,3-dihydro-2H-isoindole-2-carboxamide]", "IC50": 0.198}
{"compound": "CC(C)CCNC(=O)c1cnc(NC(=O)N2Cc3ccccc3C2)s1", "note": "[Example 372, N-{5-[(3-methylbutyl)carbamoyl]-1,3-thiazol-2-yl}-1,3-dihydro-2H-isoindole-2-carboxamide]", "IC50": 0.0535}
{"compound": "CC(C)Cn1cc(-c2ccc(CNC(=O)N3Cc4ccccc4C3)cc2)cn1", "note": "[Example 367, N-[4-(1-isobutyl-1H-pyrazol-4-yl)benzyl]-1,3-dihydro-2H-isoindole-2-carboxamide]", "IC50": 4.84}
{"compound": "O=C(CCCc1ccccc1)Nc1ccc(NC(=O)N2Cc3ccccc3C2)cc1", "note": "[Example 293, N-{4-[(4-phenylbutanoyl)amino]phenyl}-1,3-dihydro-2H-isoindole-2-carboxamide]", "IC50": 0.00877}
{"compound": "O=C(NCc1ccccc1F)c1ccc(NC(=O)N2Cc3ccccc3C2)cc1", "note": "[Example 18, N-{4-[(2-fluorobenzyl)carbamoyl]phenyl}-1,3-dihydro-2H-isoindole-2-carboxamide]", "IC50": 0.011}
{"compound": "O=C(CC1CCCC1)Nc1ccc(NC(=O)N2Cc3ccc(CO)cc3C2)cc1", "note": "[Example 315, N-{4-[(cyclopentylacetyl)amino]phenyl}-5-(hydroxymethyl)-1,3-dihydro-2H-isoindole-2-carboxamide]", "IC50": 0.00762}
{"compound": "COc1ccc2c(c1)CN(C(=O)Nc1ccc(C(=O)N3CCN(c4ccccn4)CC3)cc1)C2", "note": "[Example 69, 5-methoxy-N-(4-{[4-(pyridin-2-yl)piperazin-1-yl]carbonyl}phenyl)-1,3-dihydro-2H-isoindole-2-carboxamide]", "IC50": 0.0248}
{"compound": "CCCNC(=O)c1ccc(NC(=O)N2Cc3ccc(NC(=O)CN(C)C)cc3C2)cc1", "note": "[Example 279, 5-[(N,N-dimethylglycyl)amino]-N-[4-(propylcarbamoyl)phenyl]-1,3-dihydro-2H-isoindole-2-carboxamide]", "IC50": 1.91}
{"compound": "COc1ccccc1N1CCN(C(=O)c2ccc(NC(=O)N3Cc4ccccc4C3)cc2)CC1", "note": "[Example 52, N-(4-{[4-(2-methoxyphenyl)piperazin-1-yl]carbonyl}phenyl)-1,3-dihydro-2H-isoindole-2-carboxamide]", "IC50": 0.0197}
{"compound": "COc1ccc(OC)c(NC(=O)c2ccc(NC(=O)N3Cc4ccccc4C3)cc2)c1", "note": "[Example 157, N-{4-[(2,5-dimethoxyphenyl)carbamoyl]phenyl}-1,3-dihydro-2H-isoindole-2-carboxamide]", "IC50": 0.0846}
{"compound": "O=C(Nc1ccc2c(c1)CN(C(=O)c1ccccc1)C2)N1Cc2ccccc2C1", "note": "[Example 346, N-(2-benzoyl-2,3-dihydro-1H-isoindol-5-yl)-1,3-dihydro-2H-isoindole-2-carboxamide]", "IC50": 0.0498}
{"compound": "Cc1cc(C(=O)N2CC=C(c3ccc(NC(=O)N4Cc5ccccc5C4)cc3)CC2)c(C)[nH]1", "note": "[Example 482, N-(4-{1-[(2,5-dimethyl-1H-pyrrol-3-yl)carbonyl]-1,2,3,6-tetrahydropyridin-4-yl}phenyl)-1,3-dihydro-2H-isoindole-2-carboxamide]", "IC50": 0.00511}
{"compound": "O=C(Nc1ccc(C(=O)N2CCN(c3ncc(C(F)(F)F)cc3Cl)CC2)cc1)N1Cc2ccccc2C1", "note": "[Example 197, N-[4-({4-[3-chloro-5-(trifluoromethyl)pyridin-2-yl]piperazin-1-yl}carbonyl)phenyl]-1,3-dihydro-2H-isoindole-2-carboxamide]", "IC50": 0.178}
{"compound": "O=C(NCCCN1CCCC1=O)c1ccc(NC(=O)N2Cc3ccccc3C2)cc1", "note": "[Example 130, N-(4-{[3-(2-oxopyrrolidin-1-yl)propyl]carbamoyl}phenyl)-1,3-dihydro-2H-isoindole-2-carboxamide]", "IC50": 0.0567}
{"compound": "COc1ccccc1CNC(=O)c1ccc(NC(=O)N2Cc3ccccc3C2)cc1", "note": "[Example 21, N-{4-[(2-methoxybenzyl)carbamoyl]phenyl}-1,3-dihydro-2H-isoindole-2-carboxamide]", "IC50": 0.0112}
{"compound": "CCN(CCOC)C(=O)c1ccc(NC(=O)N2Cc3ccccc3C2)cc1", "note": "[Example 255, N-{4-[ethyl(2-methoxyethyl)carbamoyl]phenyl}-1,3-dihydro-2H-isoindole-2-carboxamide]", "IC50": 0.969}
{"compound": "O=C(Nc1ccc(N2CCN(C(=O)c3cccnn3)CC2)cc1)N1Cc2ccccc2C1", "note": "[Example 532, N-{4-[4-(pyridazin-3-ylcarbonyl)piperazin-1-yl]phenyl}-1,3-dihydro-2H-isoindole-2-carboxamide]", "IC50": 0.488}
{"compound": "CC(C)CCn1cc(-c2ccc(NC(=O)N3Cc4ccccc4C3)cc2)cn1", "note": "[Example 319, N-{4-[1-(3-methylbutyl)-1H-pyrazol-4-yl]phenyl}-1,3-dihydro-2H-isoindole-2-carboxamide]", "IC50": 0.0319}
{"compound": "NC1CCN(c2ccc(NC(=O)N3Cc4ccccc4C3)cc2)C1", "note": "(stereo not shown) [Example 573, N-[4-(3-aminopyrrolidin-1-yl)phenyl]-1,3-dihydro-2H-isoindole-2-carboxamide]", "IC50": 1.26}
{"compound": "CCCNC(=O)c1ccc(NC(=O)N2Cc3ccc(NS(C)(=O)=O)cc3C2)cc1", "note": "[Example 283, 5-[(methylsulfonyl)amino]-N-[4-(propylcarbamoyl)phenyl]-1,3-dihydro-2H-isoindole-2-carboxamide]", "IC50": 0.387}
{"compound": "CCCCNC(=O)c1ccc(NC(=O)N2Cc3ccccc3C2)cc1", "note": "[Example 123, N-[4-(butylcarbamoyl)phenyl]-1,3-dihydro-2H-isoindole-2-carboxamide]", "IC50": 0.0515}
{"compound": "CC(C)CN1CC=C(c2ccc(NC(=O)N3Cc4ccccc4C3)cc2)CC1", "note": "[Example 429, N-[4-(1-isobutyl-1,2,3,6-tetrahydropyridin-4-yl)phenyl]-1,3-dihydro-2H-isoindole-2-carboxamide]", "IC50": 0.179}
{"compound": "O=C(NCC1CCCOC1)c1ccc(NC(=O)N2Cc3ccccc3C2)cc1", "note": "(stereo not shown) [Example 420, N-{4-[(tetrahydro-2H-pyran-3-ylmethyl)carbamoyl]phenyl}-1,3-dihydro-2H-isoindole-2-carboxamide]", "IC50": 0.0182}
{"compound": "CC(C)(C)OC(=O)N1CC=C(c2ccc(NC(=O)N3Cc4ccccc4C3)cc2)CC1", "note": "[Example 317, tert-Butyl 4-{4-[(1,3-dihydro-2H-isoindol-2-ylcarbonyl)amino]phenyl}-3,6-dihydropyridine-1(2H)-carboxylate]", "IC50": 0.0421}
{"compound": "CCCNC(=O)c1ccc(NC(=O)N2Cc3ccc(C(=O)N4CCOCC4)cc3C2)cc1", "note": "[Example 560, 5-(morpholin-4-ylcarbonyl)-N-[4-(propylcarbamoyl)phenyl]-1,3-dihydro-2H-isoindole-2-carboxamide]", "IC50": 5.02}
{"compound": "O=C(Nc1ccc(C(=O)N2CCc3ccccc3C2)cc1)N1Cc2ccccc2C1", "note": "[Example 185, N-[4-(3,4-dihydroisoquinolin-2(1H)-ylcarbonyl)phenyl]-1,3-dihydro-2H-isoindole-2-carboxamide]", "IC50": 0.142}
{"compound": "CN(C)c1ccc(NC(=O)c2ccc(NC(=O)N3Cc4ccccc4C3)cc2)cc1", "note": "[Example 184, N-(4-{[4-(dimethylamino)phenyl]carbamoyl}phenyl)-1,3-dihydro-2H-isoindole-2-carboxamide]", "IC50": 0.141}
{"compound": "COCCCNC(=O)c1ccc(NC(=O)N2Cc3ccccc3C2)cc1", "note": "[Example 128, N-{4-[(3-methoxypropyl)carbamoyl]phenyl}-1,3-dihydro-2H-isoindole-2-carboxamide]", "IC50": 0.0553}
{"compound": "NCc1ccc(CNC(=O)c2ccc(NC(=O)N3Cc4ccc(F)cc4C3)cc2)cc1", "note": "[Example 2, N-(4-{[4-(aminomethyl)benzyl]carbamoyl}phenyl)-5-fluoro-1,3-dihydro-2H-isoindole-2-carboxamide]", "IC50": 0.00278}
{"compound": "CCCCC(=O)Nc1ccc(NC(=O)N2Cc3ccccc3C2)cc1", "note": "[Example 304, N-[4-(pentanoylamino)phenyl]-1,3-dihydro-2H-isoindole-2-carboxamide]", "IC50": 0.0133}
{"compound": "O=C(NCc1ccsc1)c1ccc(NC(=O)N2Cc3ccccc3C2)cc1", "note": "[Example 58, N-{4-[(3-thienylmethyl)carbamoyl]phenyl}-1,3-dihydro-2H-isoindole-2-carboxamide]", "IC50": 0.0212}
{"compound": "COc1cc(NC(=O)c2ccc(NC(=O)N3Cc4ccccc4C3)cc2)cc(OC)c1", "note": "[Example 99, N-{4-[(3,5-dimethoxyphenyl)carbamoyl]phenyl}-1,3-dihydro-2H-isoindole-2-carboxamide]", "IC50": 0.0382}
{"compound": "CC(C)C[C@H](CO)NC(=O)c1ccc(NC(=O)N2Cc3ccccc3C2)cc1", "note": "[Example 106, N-(4-{[(2R)-1-hydroxy-4-methylpentan-2-yl]carbamoyl}phenyl)-1,3-dihydro-2H-isoindole-2-carboxamide]", "IC50": 0.0263}
